pIC50: −log10 of the molar value.
Molecular target: PDE10A (Homo sapiens (Human), UniProt Q9Y233)
Assay: Measurement of PDE activity (recombinant PDE, cAMP HTRF)
Assay type: biochemical
Method: a) Measurement of PDE Activity
The recombinant PDE proteins are used in in vitro enzymatic reaction for measurement of PDE activity. These recombinant proteins, including PDE10A (human, rat and mouse PDE10) and isoforms of PDEs 1, 3, 4, and 5, were purchased from commercial vendor BPS Bioscience. The enzymatic activity of PDEs was determined by cAMP measurement kit from CisBio (IBA) using HTRF technology.
The PDE enzymatic reaction was carried out in assay buffer (20 mM Tris-HCl pH7.5, 10 mM MgCl2, 0.1% bovine serum albumin) containing enzyme and substrate. […] The substrate cyclic nucleotide (cAMP or cGMP) concentration used in the assay was 20 nM for PDE10, and 100 nM for other PDEs. The inhibitory effect of compound was determined by incubating various concentration of inhibitor in the enzymatic assay. […] Next, the compound at varying concentration was mixed with PDE enzyme. The reaction was initiated by addition of cyclic nucleotide substrate, and incubated for 60 minutes at 29 C. The reaction was stopped by addition of lysis buffer from assay kit. The cAMP-d2 and anti-cAMP cryptate in the lysis buffer detected the level of cAMP left from the PDE hydrolysis reaction. […] Thus, IC50 value of inhibitor can be obtained by plotting inhibitor concentration against PDE activity at that concentration.

Chains of the proteins cited; added tags and fusions are not shown.
UniProt Q9Y233, whole entry, species assumed: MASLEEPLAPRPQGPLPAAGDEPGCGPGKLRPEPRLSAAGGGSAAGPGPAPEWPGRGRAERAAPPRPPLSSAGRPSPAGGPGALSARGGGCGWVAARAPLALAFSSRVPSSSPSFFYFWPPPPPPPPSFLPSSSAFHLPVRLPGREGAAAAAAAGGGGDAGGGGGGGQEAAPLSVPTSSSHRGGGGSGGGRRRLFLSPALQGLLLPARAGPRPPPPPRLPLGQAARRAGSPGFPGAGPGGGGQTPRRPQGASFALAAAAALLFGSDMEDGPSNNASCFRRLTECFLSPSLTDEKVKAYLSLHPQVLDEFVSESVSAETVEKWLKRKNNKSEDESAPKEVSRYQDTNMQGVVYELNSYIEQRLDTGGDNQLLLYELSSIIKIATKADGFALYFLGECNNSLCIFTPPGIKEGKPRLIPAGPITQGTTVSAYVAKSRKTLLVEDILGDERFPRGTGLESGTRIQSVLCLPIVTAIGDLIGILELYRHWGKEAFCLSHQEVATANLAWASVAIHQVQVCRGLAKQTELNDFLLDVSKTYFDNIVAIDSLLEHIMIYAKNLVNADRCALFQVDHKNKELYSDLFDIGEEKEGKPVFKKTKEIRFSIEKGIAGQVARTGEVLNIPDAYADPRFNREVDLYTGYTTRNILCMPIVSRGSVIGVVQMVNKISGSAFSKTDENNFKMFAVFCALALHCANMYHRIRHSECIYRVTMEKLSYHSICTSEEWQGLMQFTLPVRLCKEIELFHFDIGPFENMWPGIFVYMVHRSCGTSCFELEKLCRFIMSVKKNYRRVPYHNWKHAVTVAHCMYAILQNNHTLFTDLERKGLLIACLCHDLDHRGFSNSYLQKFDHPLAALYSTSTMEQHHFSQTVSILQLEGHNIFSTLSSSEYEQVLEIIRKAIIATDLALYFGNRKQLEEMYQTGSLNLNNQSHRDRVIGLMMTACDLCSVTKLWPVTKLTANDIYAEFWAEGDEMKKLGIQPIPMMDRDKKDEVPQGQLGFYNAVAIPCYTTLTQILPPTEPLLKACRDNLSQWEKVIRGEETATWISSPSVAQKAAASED

SMILES	pIC50
CCn1cc(C(=O)N[C@@H](C)c2ccc(F)cc2)c2cc(OC)c(OC)cc2c1=O [Example 165, (S)-2-Ethyl-N-(1-(4-fluorophenyl)ethyl)-6,7-dimethoxy-1-oxo-1,2-dihydroisoquinoline-4-carboxamide]	6.70 to 7.00
CCn1cc(C(=O)NC(C)c2ccc(F)cc2)c2cc(OC)c(OC)cc2c1=O (centres unmarked) [Example 39, 2-Ethyl-6,7-dimethoxy-1-oxo-1,2-dihydro-isoquinoline-4-carboxylic acid [1-(4-fluoro-phenyl)-ethyl]-amide]	6.70 to 7.00

Source: patent US9856220B2 (AbbVie Deutschland GmbH & Co. KG, priority 2011, dated 2018)
